Here are results for five substances from patent publication US20020123614A1.

One test deals with iC3b coated on plastic (UniProt P01024). As to the kind of experiment: cell adhesion to immobilized iC3b; +DTT, +activation.
With “Mac-1 (αMβ2) mutant D294C/Q311C (locked open) (from UniProt P05107 23-769) (receptor)”, the percent of binding by activated wild type transfectant is 75 to 100%.

In turn, “Mac-1 (αMβ2) mutant Q163C/Q309C (locked open) (from UniProt P05107 23-769) (receptor)” gave a percent of binding by activated wild type transfectant of 75 to 100%.

“wild-type Mac-1 (αMβ2 heterodimer) (from UniProt P05107 23-769) (receptor)” returned a percent of binding by activated wild type transfectant of 75 to 100%.

Another test shares this target. As to the kind of experiment: cell adhesion to immobilized iC3b; +DTT, -activation.
Take “Mac-1 (αMβ2) mutant D294C/Q311C (locked open) (from UniProt P05107 23-769) (receptor)”: the percent of binding by activated wild type transfectant is 25 to 50%.

Substance “Mac-1 (αMβ2) mutant Q163C/Q309C (locked open) (from UniProt P05107 23-769) (receptor)” came in with a percent of binding by activated wild type transfectant of 25 to 50%.

“Mac-1 (αMβ2) mutant Q163C/R313C (locked closed) (from UniProt P05107 23-769) (receptor)”: the percent of binding by activated wild type transfectant was in the range of 25 to 50%.

“wild-type Mac-1 (αMβ2 heterodimer) (from UniProt P05107 23-769) (receptor)” showed a percent of binding by activated wild type transfectant of 25 to 50%.

For another test the target is unchanged. As to the kind of experiment: cell adhesion to immobilized iC3b; -DTT, +activation.
Consider “Mac-1 (αMβ2) mutant D294C/Q311C (locked open) (from UniProt P05107 23-769) (receptor)”, for which the percent of binding by activated wild type transfectant was in the range of 75 to 100%.

Turning to “Mac-1 (αMβ2) mutant F297C/A304C (from UniProt P05107 23-769) (receptor)”, the percent of binding by activated wild type transfectant is 25 to 50%.

Substance “Mac-1 (αMβ2) mutant Q163C/Q309C (locked open) (from UniProt P05107 23-769) (receptor)” came in with a percent of binding by activated wild type transfectant of 75 to 100%.

“wild-type Mac-1 (αMβ2 heterodimer) (from UniProt P05107 23-769) (receptor)” had a percent of binding by activated wild type transfectant of 75 to 100%.

For the next test the target is unchanged. The experiment in a line: cell adhesion to immobilized iC3b; -DTT, -activation.
On to “Mac-1 (αMβ2) mutant D294C/Q311C (locked open) (from UniProt P05107 23-769) (receptor)”, for which the percent of binding by activated wild type transfectant lay within 75 to 100%.

In the case of “Mac-1 (αMβ2) mutant Q163C/Q309C (locked open) (from UniProt P05107 23-769) (receptor)”, the percent of binding by activated wild type transfectant was 75 to 100%.

As to “wild-type Mac-1 (αMβ2 heterodimer) (from UniProt P05107 23-769) (receptor)”, the percent of binding by activated wild type transfectant lay in the range of 0 to 5%.
